The text below walks through data of paper PMC10096175, “An In Vitro Antimicrobial, Anticancer and Antioxidant Activity of N–[(2–Arylmethylthio)phenylsulfonyl]cinnamamide Derivatives” (Molecules, 2023).

What all share (assay): MTT assay
What all share (type): cell-based, human
In general terms: Formazan colour is commonly taken as a measure of viable cells.

One test relates to HeLa cells. The following applies: IC50 HEK-293 / IC50 HeLa.
The next test relates to MCF-7 cells. The following applies: IC50 HEK-293 / IC50 MCF-7.
The next test concerns SKOV-3 cells. The settings on record: IC50 HEK-293 / IC50 SKOV-3.

On to `Cc1cc(S(=O)(=O)NC(=O)C=Cc2ccccc2)c(SCc2cccc3ccccc23)cc1Cl` [Compound 16a, N–[4–Chloro–5–methyl–2–(naphthalen–1–ylmethylthio)benzenesulfonyl]cinnamamide], for which the “Selectivity index (SI)” value was 1.0 in the test with HeLa cells, 0.9 with MCF-7 cells and 1.1 with SKOV-3 cells.
